Measured values published in patent publication US8658693B2, “4-aminobenzonitrile selective androgen receptor modulators” (Eli Lilly and Company, priority 2011, dated 2014).

Sequences of proteins named here, by UniProt entry; tags and fusion partners are left off. A change or cut given only in a name is not applied to a line headed by its entry.
UniProt P04150: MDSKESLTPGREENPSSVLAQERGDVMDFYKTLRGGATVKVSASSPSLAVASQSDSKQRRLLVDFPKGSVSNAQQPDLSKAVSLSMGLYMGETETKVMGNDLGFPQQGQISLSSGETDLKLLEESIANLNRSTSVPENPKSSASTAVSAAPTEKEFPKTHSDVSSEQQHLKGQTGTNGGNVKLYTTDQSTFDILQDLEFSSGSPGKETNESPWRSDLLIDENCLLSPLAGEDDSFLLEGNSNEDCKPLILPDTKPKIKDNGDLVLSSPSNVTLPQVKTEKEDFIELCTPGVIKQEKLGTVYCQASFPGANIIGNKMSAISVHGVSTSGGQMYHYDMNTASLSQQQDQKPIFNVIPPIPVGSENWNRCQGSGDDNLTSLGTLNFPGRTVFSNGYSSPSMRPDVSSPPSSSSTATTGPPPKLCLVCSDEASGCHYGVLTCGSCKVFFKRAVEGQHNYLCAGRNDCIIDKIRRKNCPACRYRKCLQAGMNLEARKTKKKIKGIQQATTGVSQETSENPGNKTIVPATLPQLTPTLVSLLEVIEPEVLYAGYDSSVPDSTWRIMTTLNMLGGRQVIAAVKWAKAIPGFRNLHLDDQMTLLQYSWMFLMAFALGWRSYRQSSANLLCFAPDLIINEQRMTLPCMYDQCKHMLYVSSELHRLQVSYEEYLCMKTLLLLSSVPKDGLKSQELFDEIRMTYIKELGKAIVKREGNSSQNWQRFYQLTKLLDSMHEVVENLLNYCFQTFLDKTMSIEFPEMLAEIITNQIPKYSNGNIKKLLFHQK
UniProt P08235: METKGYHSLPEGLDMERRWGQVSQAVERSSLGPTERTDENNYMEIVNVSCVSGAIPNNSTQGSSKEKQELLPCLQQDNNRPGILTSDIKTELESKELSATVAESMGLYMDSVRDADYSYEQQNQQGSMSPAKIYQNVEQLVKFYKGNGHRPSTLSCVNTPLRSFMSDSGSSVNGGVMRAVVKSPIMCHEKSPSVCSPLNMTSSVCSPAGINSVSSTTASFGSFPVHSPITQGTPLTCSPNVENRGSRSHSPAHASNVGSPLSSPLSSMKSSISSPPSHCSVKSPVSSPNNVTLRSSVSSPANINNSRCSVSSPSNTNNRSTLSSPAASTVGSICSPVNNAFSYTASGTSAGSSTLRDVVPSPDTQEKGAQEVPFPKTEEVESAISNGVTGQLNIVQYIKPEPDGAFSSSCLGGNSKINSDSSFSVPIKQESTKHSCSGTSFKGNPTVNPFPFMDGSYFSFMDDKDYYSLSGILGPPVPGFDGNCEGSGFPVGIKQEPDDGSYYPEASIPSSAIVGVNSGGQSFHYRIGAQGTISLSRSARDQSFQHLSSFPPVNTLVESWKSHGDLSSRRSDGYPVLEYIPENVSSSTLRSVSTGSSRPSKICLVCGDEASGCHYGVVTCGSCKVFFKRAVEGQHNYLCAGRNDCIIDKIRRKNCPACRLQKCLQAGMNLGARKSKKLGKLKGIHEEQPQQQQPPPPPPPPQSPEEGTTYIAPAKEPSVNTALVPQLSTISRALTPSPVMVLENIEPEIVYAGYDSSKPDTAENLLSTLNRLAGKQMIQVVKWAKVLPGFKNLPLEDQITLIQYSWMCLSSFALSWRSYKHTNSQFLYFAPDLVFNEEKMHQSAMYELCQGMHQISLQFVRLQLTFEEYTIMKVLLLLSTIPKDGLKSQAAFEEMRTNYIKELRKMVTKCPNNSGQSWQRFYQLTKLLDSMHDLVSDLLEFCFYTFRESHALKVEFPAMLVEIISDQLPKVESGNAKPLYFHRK
UniProt P06401: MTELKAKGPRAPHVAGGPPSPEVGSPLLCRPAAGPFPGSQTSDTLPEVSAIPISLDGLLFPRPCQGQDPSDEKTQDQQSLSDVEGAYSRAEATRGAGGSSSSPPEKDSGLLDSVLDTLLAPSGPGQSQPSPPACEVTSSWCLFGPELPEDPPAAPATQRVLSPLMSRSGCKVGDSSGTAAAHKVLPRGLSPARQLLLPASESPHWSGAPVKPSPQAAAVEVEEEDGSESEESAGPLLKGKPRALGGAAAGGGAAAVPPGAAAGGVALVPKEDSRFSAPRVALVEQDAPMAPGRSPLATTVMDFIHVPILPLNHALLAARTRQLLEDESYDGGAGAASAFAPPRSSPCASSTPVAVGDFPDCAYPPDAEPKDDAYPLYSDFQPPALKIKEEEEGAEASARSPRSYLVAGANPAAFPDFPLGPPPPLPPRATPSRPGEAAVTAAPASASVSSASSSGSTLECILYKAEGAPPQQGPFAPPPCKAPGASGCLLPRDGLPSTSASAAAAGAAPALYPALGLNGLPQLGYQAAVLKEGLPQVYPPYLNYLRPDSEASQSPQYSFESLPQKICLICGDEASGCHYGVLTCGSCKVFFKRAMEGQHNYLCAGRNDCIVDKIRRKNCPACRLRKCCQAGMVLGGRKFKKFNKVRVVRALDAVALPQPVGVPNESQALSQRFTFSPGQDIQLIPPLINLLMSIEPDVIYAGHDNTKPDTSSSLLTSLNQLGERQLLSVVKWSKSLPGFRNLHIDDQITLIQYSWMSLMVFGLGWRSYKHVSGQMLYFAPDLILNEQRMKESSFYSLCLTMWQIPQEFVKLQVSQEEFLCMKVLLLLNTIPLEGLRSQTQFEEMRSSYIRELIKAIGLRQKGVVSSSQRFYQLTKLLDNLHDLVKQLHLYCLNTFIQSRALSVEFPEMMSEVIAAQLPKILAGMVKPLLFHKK

Assays:
[1] = target: human GR (glucocorticoid receptor) (Homo sapiens, UniProt P04150); test: Steroid hormone nuclear receptor binding assay, GR; details: read-out: GR (Ki nM); HEK293 lysate, [3H]-dexamethasone
[2] = target: human MR (mineralocorticoid receptor) (Homo sapiens, UniProt P08235); test: Steroid hormone nuclear receptor binding assay, MR; details: read-out: MR (Ki nM); HEK293 lysate, [3H]-aldosterone
[3] = target: human PR (progesterone receptor) (Homo sapiens, UniProt P06401); test: Steroid hormone nuclear receptor binding assay, PR; details: read-out: PR (Ki nM); HEK293 lysate, [3H]-methyltrienolone

Question: With Cc1c(N[C@H]2CCC[C@@]2(C)O)ccc(C#N)c1Cl as the compound, how does the Ki [1] read?
Answer: Its Ki is 462 nM.

Question: What about the Ki [2] of the same compound?
Answer: Its Ki is 1840 nM.

Question: What about the Ki [3] of the same compound?
Answer: The Ki was 448 nM.
